Assay [1] deals with Human PBMCs containing naïve Vγ9Vδ2 T cells. The experiment in a line: IFN-γ production of PBMCs by ELISA. Format: cell-based. The settings on record: PBMC, 48 h, read-out: IFN-γ EC50 (μM) with 95% CI.
The next assay relates to Vγ9Vδ2 T cells. Conditions: read-out: Proliferation EC50 (μM) with 95% CI; footnote a; ref Hsiao 2014; cited from earlier work.

Molecules are shown by their SMILES.

As to `CC(C)=CCOP(=O)(O)OP(=O)(O)O` [Compound 2, dimethylallyl diphosphate], in assay [1], the EC50 was found to be 1.5 µM.
Regarding `C=C(C)CCOP(=O)(O)OP(=O)(O)O` [Compound 3, isopentenyl diphosphate], the EC50 in assay [1] was 71 µM; in the assay with Vγ9Vδ2 T cells, 36 µM.

(Values after article PMC7701984 (Journal of medicinal chemistry, 2019).)
